Reference: US4045488A, “Aminophenyltetralin compounds” (Pfizer Inc., priority 1976, dated 1977)

Test system: spontaneous motor activity
Experiment: spontaneous motor activity in mice (circular actophotometers, activity counts)
Type: in vivo, mouse
Conditions: i.p.
From the text: On the other hand, the activity of the compounds of the present invention, as psychomotor stimulants, is based on a variety of tests, including (1) a study of their motor activity in mice and (2) a measurement of their ability to influence the loss of avoidance behavior in rats trained on a non-discriminated (Sidman) avoidance schedule.
Seven circular acetophotometers, each 39 cm. in diameter and each containing six photocell units, were used to independently study the effects of trans-dl-N-methyl-4-phenyl-1,2,3,4-tetrahydro-1-naphthylamine hydrochloride, trans-d-N-methyl-4-phenyl-1,2,3,4-tetrahydro-1-naphthylamine hydrochloride and its corresponding laevortatory isomer, d-amphetamine sulfate, methylphenidate, desmethylimipramine and protriptyline, respectively, on spontaneous motor activity in mice. A total of seven mice was employed at each dose level tested (viz., at 0.32, 1.0, 3.2, 10 and 32 mg./kg., i.p., respectively) and these mice were separated one to an activity cage. After an initial 1/2 hour exposure period (for acclimation purposes), each animal in the cage was treated with a sample of the drug intraperitoneally and immediately thereafter returned to said cage, with activity counts every 1/2 hour being recorded from that point on.

CN[C@@H]1CC[C@@H](c2ccccc2)c2ccccc21 (relative stereo) [Trans-isomer of Example IV, trans-dl-N-methyl-4-phenyl-1,2,3,4-tetrahydro-1-naphthylamine hydrochloride]
potency as motor stimulant relative to the dextrorotatory isomer: somewhat less potent than the aforesaid dextrorotatory isomer

Counter-ions that a name gives are not always drawn.
